# Experimental data taken from patent US20180355059A1.
# Biological target: recombinant human PCSK9^D374Y protein (human) (UniProt Q8NBP7)
# Assay: cell-based or functional assay
row,"IC50 (nM), LDL uptake by HepG2 cells [nM]",Substance
1,1.2,AF-mab023_01 (antibody; biotinylated in the ELISA assays)
2,1.28,AF-mab023_11 (antibody; biotinylated in the ELISA assays)
3,1.21,AF-mab023_12 (antibody; biotinylated in the ELISA assays)
4,1.25,AF-mab023_14 (antibody; biotinylated in the ELISA assays)
5,0.99,AF-mab023_18 (antibody; biotinylated in the ELISA assays)
